From PMC11993666 (2025) come the findings set out here.

By UniProt entry, the sequences of proteins in these tests, tags left out. Residues count along the entry.
UniProt P25942, 21-277: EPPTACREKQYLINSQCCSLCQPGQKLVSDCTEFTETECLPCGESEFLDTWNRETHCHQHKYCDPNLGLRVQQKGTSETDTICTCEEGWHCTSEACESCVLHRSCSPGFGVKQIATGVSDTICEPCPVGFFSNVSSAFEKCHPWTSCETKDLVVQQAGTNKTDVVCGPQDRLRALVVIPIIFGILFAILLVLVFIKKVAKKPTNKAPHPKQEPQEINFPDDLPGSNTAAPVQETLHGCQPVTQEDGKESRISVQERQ

Holding throughout (assay): SPR
The target in assay [1] is T1, hCD40 (as used in SPR) (human, UniProt P25942 21-277).
For assay [2], the target named is T1, hCD40 (as used in SPR). The source holds these as a separate data set.
The target in assay [3] is T1, hCD40 (as used in SPR). This is another data set of the same source.
For assay [4], the target named is T1, hCD40 (as used in SPR). This is another data set of the same source.

Read-outs that look alike come from different tables or passages of the source.

B1: ChiLob7/4 hIgG2 C232S + K228C κC214S (cross-over + K228C) (antibody, V domains shown)
VH: EVQLQQSGPDLVKPGASVKISCKTSGYTFTEYIMHWVKQSHGKSLEWIGGIIPNNGGTSYNQKFKDKATMTVDKSSSTGYMELRSLTSEDSAVYYCTRREVYGRNYYALDYWGQGTLVTVSS
VL: DIQMTQTTSSLSASLGDRVTITCSASQGINNYLNWYQQKPDGTVKLLIYYTSSLHSGVPSRFSGSGSGTDYSLTISNLEPEDIATYYCQQYSNLPYTFGGGTKLEIK
modifications: glycosylated at N297 (Fc)
For the molecule B1, the dissociation rate constant (koff) with hCD40 (as used in SPR) [1] worked out at 0.000194 s⁻¹. Besides, the dissociation constant (Kd) with hCD40 (as used in SPR) [2] is 1.52 nM.

B2: ChiLob7/4 hIgG2 C232S κC214S (cross-over) (antibody, V domains shown)
VH: EVQLQQSGPDLVKPGASVKISCKTSGYTFTEYIMHWVKQSHGKSLEWIGGIIPNNGGTSYNQKFKDKATMTVDKSSSTGYMELRSLTSEDSAVYYCTRREVYGRNYYALDYWGQGTLVTVSS
VL: DIQMTQTTSSLSASLGDRVTITCSASQGINNYLNWYQQKPDGTVKLLIYYTSSLHSGVPSRFSGSGSGTDYSLTISNLEPEDIATYYCQQYSNLPYTFGGGTKLEIK
modifications: glycosylated at N297 (Fc)
The molecule B2 showed a Kd with hCD40 (as used in SPR) [3] of 4.74 nM. In addition, the koff with hCD40 (as used in SPR) [4] stood at 0.000294 s⁻¹.

B3: ChiLob7/4 hIgG2 C232S + C233S (antibody, V domains shown)
VH: EVQLQQSGPDLVKPGASVKISCKTSGYTFTEYIMHWVKQSHGKSLEWIGGIIPNNGGTSYNQKFKDKATMTVDKSSSTGYMELRSLTSEDSAVYYCTRREVYGRNYYALDYWGQGTLVTVSS
VL: DIQMTQTTSSLSASLGDRVTITCSASQGINNYLNWYQQKPDGTVKLLIYYTSSLHSGVPSRFSGSGSGTDYSLTISNLEPEDIATYYCQQYSNLPYTFGGGTKLEIK
modifications: glycosylated at N297 (Fc)
As for B3, the affinity in the assay with hCD40 (as used in SPR) [3], expressed as Kd, was 0.611 nM. In the assay with hCD40 (as used in SPR) [4], this molecule showed an off-rate constant (koff) of 7.05e-05 s⁻¹.

B4: ChiLob7/4 hIgG2 C233S κC214S (antibody, V domains shown)
VH: EVQLQQSGPDLVKPGASVKISCKTSGYTFTEYIMHWVKQSHGKSLEWIGGIIPNNGGTSYNQKFKDKATMTVDKSSSTGYMELRSLTSEDSAVYYCTRREVYGRNYYALDYWGQGTLVTVSS
VL: DIQMTQTTSSLSASLGDRVTITCSASQGINNYLNWYQQKPDGTVKLLIYYTSSLHSGVPSRFSGSGSGTDYSLTISNLEPEDIATYYCQQYSNLPYTFGGGTKLEIK
modifications: glycosylated at N297 (Fc)
As to B4, in the assay with hCD40 (as used in SPR) [3], binding was characterised by a dissociation constant (Kd) of 6.67 nM. Besides, the koff in the assay with hCD40 (as used in SPR) [4] is 0.000372 s⁻¹.

B5: ChiLob7/4 hIgG2 C232S + T222C κE123C + κC214S (cross-over + T222C κE123C) (antibody, V domains shown)
VH: EVQLQQSGPDLVKPGASVKISCKTSGYTFTEYIMHWVKQSHGKSLEWIGGIIPNNGGTSYNQKFKDKATMTVDKSSSTGYMELRSLTSEDSAVYYCTRREVYGRNYYALDYWGQGTLVTVSS
VL: DIQMTQTTSSLSASLGDRVTITCSASQGINNYLNWYQQKPDGTVKLLIYYTSSLHSGVPSRFSGSGSGTDYSLTISNLEPEDIATYYCQQYSNLPYTFGGGTKLEIK
modifications: glycosylated at N297 (Fc)
In turn, B5 showed a dissociation rate constant (koff) with hCD40 (as used in SPR) [1] of 0.000221 s⁻¹. For the same molecule, binding with hCD40 (as used in SPR) [2] was characterised by a dissociation constant (Kd) of 1.82 nM.

As usually defined, the koff is a measure of how fast the partners let go of each other. A low value points to a long-lived complex. As usually defined, the Kd is a measure of binding affinity in units of concentration. A higher Kd goes with weaker binding.
